{"source": "paper PMC10831071", "about": "“Reaction hijacking inhibition of Plasmodium falciparum asparagine tRNA synthetase” (Nature Communications, 2024)", "key": {"[1]": {"tested_on": "PfGlyRS cKD P. falciparum line", "type": "cell-based, Plasmodium falciparum", "settings": "PfGlyRS knockdown vs 500 nM aTc", "description": "(§1) Conditional knockdown (cKD) P. falciparum lines were generated for the cytosolic AsnRS (PF3D7_0211800), cytosolic AlaRS (PF3D7_1367700), cytosolic GlyRS (GlyRS; PF3D7_1420400), PfNT4 (PF3D7_0103200), P. falciparum glutamate dehydrogenase 3 (GDH3; PF3D7_0802000), and P. falciparum carbonic anhydrase (CA, PF3D7_1140000) by fusing the coding sequences and non-coding RNA aptamer sequences in the 3’-UTR, permitting translation regulation using the TetR-DOZI system[59],[60]. Gene editing was achieved by CRISPR/SpCas9 using the linear pSN054 vector that contains cloning sites for the left homology region (LHR) and the right homology region (RHR) as well a target-specific guide RNA under control of the T7 promoter. Cloning into the pSN054 donor vector was carried out following described procedures[59],[60]. The vector includes V5-2xHA epitope tags, a 10x tandem array of TetR aptamers upstream of an Hsp86 3’UTR, and a multicistronic cassette for expression of TetR-DOZI (translation regulation), blasticidin S-deaminase (selection marker) and a Renilla luciferase (RLuc) reporter. All primer and synthetic fragment sequences that were generated using the BioXP™ system and IDT gBlocks™ are included in Supplementary Table 9. The final constructs were sequence-verified and further confirmed by restriction digests.\n(§2) Transfection into Cas9- and T7 RNA polymerase-expressing NF54 parasites was carried out by pre-loading red blood cells (RBCs) with the donor vector[61]. […] Cultures were monitored by Giemsa smears and RLuc measurements.\n(§3) DMSO- and dihydroartemisinin-treatment (0.5 µM) served as reference controls."}, "[2]": {"tested_on": "PfNT4 cKD P. falciparum line", "type": "cell-based, Plasmodium falciparum", "settings": "PfNT4 knockdown vs 500 nM aTc", "description": "as §1, §2, §3"}, "[3]": {"tested_on": "PfAlaRS cKD P. falciparum line", "type": "cell-based, Plasmodium falciparum", "settings": "PfAlaRS knockdown vs 500 nM aTc", "description": "as §1, §2, §3"}, "[4]": {"tested_on": "PfGDH3 cKD P. falciparum line", "type": "cell-based, Plasmodium falciparum", "settings": "PfGDH3 knockdown vs 500 nM aTc", "description": "as §1, §2, §3"}, "[5]": {"tested_on": "PfCA cKD P. falciparum line", "type": "cell-based, Plasmodium falciparum", "settings": "PfCA knockdown vs 500 nM aTc", "description": "as §1, §2, §3"}, "[6]": {"tested_on": "PfAsnRS cKD P. falciparum line", "type": "cell-based, Plasmodium falciparum", "settings": "PfAsnRS knockdown vs 500 nM aTc", "description": "as §1, §2, §3"}, "[7]": {"tested_on": "HepG2 mammalian cell line (HepG2-A16-CD81-EGFP)", "assay": "HepG2 cytotoxicity (CellTiterGlo)", "type": "cell-based, human", "procedure": "The cells were then infected with freshly dissected luciferase-expressing P. berghei (PbLuc) (4 × 10^3) sporozoites. After 48 h of incubation with the compound, the viability of P. berghei exoerythrocytic forms (EEF) was measured by bioluminescence using Bright Glow reagent (Promega). HepG2 cytotoxicity was assessed by adding CellTiterGlo reagent (Promega). The plates were read in a PHERAstar FSX reader (BMG LABTECH)."}, "[8]": {"molecular_target": "T1, HsAsnRS (Homo sapiens, UniProt O43776)", "T1 construct": "HsAsnRS (residues M1–P548) and CDHsAsnRS (residues A98–P548); His6 (N, cleaved yes); made in house; host or cells: E. coli BL21 (DE3), pET11a", "T1 sequence (O43776 1-548)": "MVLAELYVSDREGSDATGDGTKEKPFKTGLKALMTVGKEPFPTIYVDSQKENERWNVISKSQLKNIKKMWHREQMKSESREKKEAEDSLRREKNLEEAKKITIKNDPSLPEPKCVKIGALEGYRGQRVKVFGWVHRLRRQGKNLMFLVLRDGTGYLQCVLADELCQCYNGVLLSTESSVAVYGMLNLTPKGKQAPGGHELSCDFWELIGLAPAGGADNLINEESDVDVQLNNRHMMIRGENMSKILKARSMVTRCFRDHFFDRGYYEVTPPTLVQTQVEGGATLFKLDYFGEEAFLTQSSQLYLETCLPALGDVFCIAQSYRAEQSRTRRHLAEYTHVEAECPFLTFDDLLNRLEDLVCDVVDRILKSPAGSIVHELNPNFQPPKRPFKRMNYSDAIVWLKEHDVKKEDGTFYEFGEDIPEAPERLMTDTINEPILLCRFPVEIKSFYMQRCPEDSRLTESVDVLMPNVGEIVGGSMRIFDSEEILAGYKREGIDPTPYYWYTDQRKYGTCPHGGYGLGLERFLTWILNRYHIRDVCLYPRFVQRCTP", "assay": "ATP consumption assay (Kinase-Glo), HsAsnRS", "type": "biochemical", "settings": "for ATP consumption: HsAsnRS, normalised to 1 (Fig 3D)"}}, "note": "Where “and” joins values, the source holds several entries; their conditions need not be identical. Identical values can stand only once."}
{"smiles": "Nc1ncnc2cc(-c3cccc(S(N)(=O)=O)c3)sc12", "note": "[OSM-S-106]", "values": [{"measurement": "Average fold-shift", "setting": "[1]", "result": 1.0, "unit": "fold"}, {"measurement": "Average fold-shift", "setting": "[2]", "result": "3.0 fold and 3 fold"}, {"measurement": "Average fold-shift", "setting": "[3]", "result": 1.8, "unit": "fold"}, {"measurement": "Average fold-shift", "setting": "[4]", "result": 1.0, "unit": "fold"}, {"measurement": "Average fold-shift", "setting": "[5]", "result": 1.2, "unit": "fold"}, {"measurement": "Average fold-shift", "setting": "[6]", "result": 6.6, "unit": "fold"}, {"measurement": "selectivity index (IC50 HepG2/IC50 PbLuc)", "setting": "[7]", "result": "over 140 fold"}]}
{"smiles": "Nc1ncnc2c1ncn2[C@@H]1O[C@H](COS(N)(=O)=O)[C@@H](O)[C@H]1O", "note": "[AMS, adenosine 5’-O-sulfamate, reference compound]", "values": [{"measurement": "IC50", "setting": "[8]", "result": 26, "unit": "µM"}, {"measurement": "ATP consumption", "setting": "[8]; 0.1 μM AMS", "result": "0.994 and 1"}, {"measurement": "ATP consumption", "setting": "[8]; 1 μM AMS", "result": "0.9311 and 0.9198 and 0.9615"}, {"measurement": "ATP consumption", "setting": "[8]; 3 μM AMS", "result": "0.8273 and 0.8247 and 0.8508"}, {"measurement": "ATP consumption", "setting": "[8]; 10 μM AMS", "result": "0.619 and 0.6273 and 0.6831"}, {"measurement": "ATP consumption", "setting": "[8]; 30 μM AMS", "result": "0.4465 and 0.4816 and 0.5434"}, {"measurement": "ATP consumption", "setting": "[8]; 100 μM AMS", "result": "0.3002 and 0.3591 and 0.4295"}, {"measurement": "ATP consumption", "setting": "[8]; 200 μM AMS", "result": "0.2507 and 0.3116 and 0.3738"}]}
